Data reported in ChEMBL document CHEMBL4145615, “Indolyl Azaspiroketal Mannich Bases Are Potent Antimycobacterial Agents with Selective Membrane Permeabilizing Effects and in Vivo Activity” (J Med Chem, 2018).

Assay: Selectivity index, ratio of IC50 for African green monkey Vero E6 cells to MIC50 for Mycobacterium bovis BCG ATCC 35734
Assay type: toxicity, Vero C1008
Details: read-out: Selectivity Index

SMILES: CCCCCCCCn1cc(CN2CCC3(CC2)OCCO3)c2ccc(OC)cc21
- selectivity ratio: 23
